Test results: ChEMBL document CHEMBL1212862, “Role of 2',6'-dimethyl-l-tyrosine (Dmt) in some opioid lead compounds” (Bioorg Med Chem, 2010)
pIC50: −log10 of the molar value.

Chains of the proteins cited; added tags and fusions are not shown.
UniProt P32300, whole entry: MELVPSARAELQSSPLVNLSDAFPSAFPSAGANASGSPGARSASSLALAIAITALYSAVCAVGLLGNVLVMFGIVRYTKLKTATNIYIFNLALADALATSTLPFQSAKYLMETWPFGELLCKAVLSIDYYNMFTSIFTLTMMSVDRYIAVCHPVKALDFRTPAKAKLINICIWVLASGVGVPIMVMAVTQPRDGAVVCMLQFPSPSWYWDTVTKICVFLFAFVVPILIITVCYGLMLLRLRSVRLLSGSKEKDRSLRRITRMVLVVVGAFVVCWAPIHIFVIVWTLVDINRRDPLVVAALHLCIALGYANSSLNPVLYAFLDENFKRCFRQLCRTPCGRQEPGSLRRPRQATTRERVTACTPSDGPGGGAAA

Biological target: Delta-type opioid receptor (Mus musculus, UniProt P32300)
Test: Agonist activity at delta opioid receptor in mouse vas deference
Type: functional
Procedure, shortened: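 Isolated tissue assay in organ baths with balanced salt solution in physiological buffer, pH 7.5. Delta agonism measured on single mouse vas deferens, mu agonism on myenteric plexus longitudinal muscle strips (2–3 cm) from small intestine of male Hartley guinea pigs. Inhibition of electrically evoked contraction; IC50 (nM) from dose-response curves. DPDPE (MVD) and PL017 (GPI) run as internal standards. Mean ± SE of at least four tissue samples.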

CC(C)[C@H](NC(=O)[C@H](CCC(=O)O)NC(=O)[C@H](Cc1ccccc1)NC(=O)[C@H](C)NC(=O)[C@@H](N)Cc1ccc(O)cc1)C(=O)N[C@H](C(=O)NCC(=O)O)C(C)C [DELTORPHINE II]
pIC50: 9.28
